The numbers were not newly measured in patent publication US20060205037A1, “Modified transferrin fusion proteins” (priority 2003, published 2006), which cites them from elsewhere.

For this data set the following is noted: in vivo; cited from earlier work.

For the substance exendin-4 [reference compound], the t1/2 was 2 to 4 h.
